Earlier results as cited in paper PMC10883292, “Estrogen Receptor Mutations as Novel Targets for Immunotherapy in Metastatic Estrogen Receptor–positive Breast Cancer” (Cancer Research Communications, 2024).

Legend:
[1] = tested on: HER2-low-expressing cancer; settings: multicenter phase III, HER2-low (1–2+ by IHC); cited from earlier work
Source text: (§1) Our findings pave the way for the development of ESR1 targeted immunotherapy. One approach could be vaccine development, as we were able to expand CD8^+ T cells to target these five novel peptides. […] E75, a nanomeric peptide derived from HER2, has been used in multiple clinical trials for breast, ovarian, and gastric cancers, many of which were led by our group.

[2] = tested on: high-risk HER2+ breast cancer; settings: 187 patients, adjuvant setting; cited from earlier work
Source text: as §1

## E75: nanomeric peptide derived from HER2, used as vaccine
[1]
  clinical benefit as monotherapy: failed to demonstrate the clinical benefit
[2]
  reduction of relative risk of recurrence: 48%
